From US20240238327A1, “PHARMACEUTICAL COMPOSITION COMPRISING GAMMA-CYCLODEXTRIN POLYMER AND USES THEREOF” (priority 2021, published 2024)

Assays:
Raw 264.7 cells = experiment: cytotoxicity (CCK-8 cell viability); assay type: cell-based; details: 20 mg/mL; compared to alpha- and beta-cyclodextrins, regardless of molecular weight
[1] = system: whole blood from wild-type C57/BL6 mice; experiment: hemolytic activity; assay type: cell-based; details: for hemolytic activity: monomers, 50 mg/ml in PBS, 37° C., 1 hour

Question: Which results are given for hydroxypropyl-gamma-cyclodextrin?
Answer: cytotoxicity (in words) (Raw 264.7 cells): significantly low cytotoxicity; hemolytic activity (in words) ([1]; 50 mg/ml, compared to alpha- and beta-cyclodextrins, regardless of molecular weight): significantly low hemolytic activities; hemolytic activity [1]: 1.6%

Question: Which hemolytic activity [1] does the source give for hydroxypropyl-alpha-cyclodextrin here?
Answer: 93.5%
